# From PubChem BioAssay AID602244 (Sanford-Burnham Center for Chemical Genomics, 2012)
# Chains of the proteins cited; added tags and fusions are not shown. Lines headed by an entry give the natural chain unless they say otherwise; changes in a name come on top.
# UniProt O00574: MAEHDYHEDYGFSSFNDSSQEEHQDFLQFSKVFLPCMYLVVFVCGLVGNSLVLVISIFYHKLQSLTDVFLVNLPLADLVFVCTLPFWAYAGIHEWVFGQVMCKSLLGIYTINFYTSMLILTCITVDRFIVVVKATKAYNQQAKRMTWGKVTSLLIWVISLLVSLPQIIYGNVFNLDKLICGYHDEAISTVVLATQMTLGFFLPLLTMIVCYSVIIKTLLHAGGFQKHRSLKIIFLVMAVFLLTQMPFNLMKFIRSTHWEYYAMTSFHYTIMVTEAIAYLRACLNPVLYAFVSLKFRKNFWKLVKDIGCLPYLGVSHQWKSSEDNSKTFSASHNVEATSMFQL
# Only a part is listed here, and it is no random draw. Active and inactive are the calls of the source. No stated cut-off is given here; in the data, active means inhibition above about 34% (passing the limit was not always enough); inactive means the rest.
# Target: C-X-C chemokine receptor type 6 (Homo sapiens) (UniProt O00574)
# Experiment: blockade of CXCL16-induced CXCR6 beta-arrestin recruitment – cell-based, luminescence, CHO-K1 PathHunter, 1536-well, primary screen (AID 602244);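 further: antagonist mode with CXCL16 agonist at 10 nM final; 0% = 10 nM CXCL16 with DMSO and 100% = unstimulated wells without agonist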
# Settings: at 20 µM, active compounds read high
row,SMILES,inhibition
1,O=[N+]([O-])c1ncn(CCn2ncnc2[N+](=O)[O-])n1,inactive: -14.7%
2,CC(C)(C)C(=O)NC(Sc1ccncn1)C(Cl)(Cl)Cl (stereo not given),inactive: -10.5%
3,O=C(O)CNc1ccc([As](=O)(O)O)cc1,inactive: -3.1%
4,O=[N+]([O-])c1cccc(NC2=NCC(CBr)S2)c1 (stereo not given),inactive: 4.8%
5,COC(=O)C1(C)COP(=O)(Nc2ccccc2)OC1 (stereo not given),inactive: 7.6%
6,O=P1(N(CCCl)CCCl)OCCCS1 (stereo not given),inactive: 3.8%
7,O=C(Nc1cc([As](=O)(O)O)ccc1O)c1ccccc1,inactive: 12.9%
8,CCN(/C(=N/P(=O)(N1CCOCC1)N1CCOCC1)N1CCOCC1)c1ccc(OC)cc1,inactive: -0.7%
9,C[N+]1=C2C=CC=CC=C2SC12C([N+](=O)[O-])=CC([N+](=O)[O-])=C[C-]2[N+](=O)[O-] (stereo not given),active: 82.5%
10,Nc1ccc([As](=O)(O)c2ccc(N)cc2)cc1,inactive: 7%
11,c1cc(-c2nn[nH]n2)ccc1-c1nn[nH]n1,inactive: 4.7%
12,CC1CCN(C(=O)Oc2c(Cl)cc(Cl)c3cccnc23)CC1,inactive: -15%
13,CN(C)C(=O)OCCc1n(C)cc[n+]1C,inactive: 1.8%
14,CC(C)=N/N=C(\N)N[N+](=O)[O-],inactive: 6.2%
15,CC(C)c1nc(Nc2ccccc2)n(P(=O)(N(C)C)N(C)C)n1,inactive: 5.8%
16,COc1ccc(C2=NCC(CBr)S2)cc1 (stereo not given),inactive: 1.8%
17,O=[N+]([O-])c1cc([N+](=O)[O-])c(CCNc2ccccc2)c([N+](=O)[O-])c1,inactive: 3.7%
18,CCc1nc2c(n1)c1c(non1O)c1c2no[n+]1[O-],inactive: 5.6%
19,Cc1ccc(NP(=O)(Oc2ccccc2)Oc2ccccc2)nc1,inactive: 6.9%
20,CC(=O)N1C2C3N(C(C)=O)C1C1N(C(C)=O)C(C(N1C(C)=O)N3C(C)=O)N2C(C)=O,inactive: -12.9%
21,O=[N+]([O-])c1cccc2n[nH]nc12,inactive: 1%
22,O=C(NC(Sc1ccncn1)C(Cl)(Cl)Cl)c1ccccc1 (stereo not given),inactive: -13.6%

row,SMILES,inhibition
1,Oc1ccccc1CNc1ccccn1,inactive: -1.1%
2,CC(C)CC(=O)NC(Sc1ccc(Cl)cc1)C(Cl)(Cl)Cl (stereo not given),inactive: -2.3%
3,Nc1cc(N)c2nonc2c1[N+](=O)[O-],inactive: -7.2%
4,O=[N+]([O-])C1C(O)C(O)C([N+](=O)[O-])C(O)C1O (stereo not given),inactive: 4%
5,Cc1ccc(N/C(=N/P(=O)(N2CCOCC2)N2CCOCC2)N2CCOCC2)cc1,inactive: 10.7%
6,CN(C(=O)Cc1ccc(Cl)c(Cl)c1)[C@H]1CCCC[C@H]1N1CCCC1,inactive: 10.2%
7,NC(=O)c1cc([N+](=O)[O-])cc([N+](=O)[O-])c1N,inactive: -7.2%
8,Clc1ccc(Cl)c(NC2=NCC(CBr)S2)c1 (stereo not given),inactive: -5.8%
9,CN1CCCC(OC(=O)C(c2ccccc2)c2ccccc2)C1 (stereo not given),inactive: 11%
10,Cc1ccc(OP(=O)(Nc2nccs2)Oc2ccc(C)cc2)cc1,inactive: -3.4%
11,COc1ccccc1OP(=O)(Nc1ccc(C)cn1)Oc1ccccc1OC,inactive: 4.6%
12,Nc1cccc2ccc([As](=O)(O)O)cc12,inactive: -6.6%
13,CCN(N=Nc1nonc1N)c1nonc1N,inactive: 5.2%
14,CN(C)P(=O)(N(C)C)n1c(Nc2ccccc2)nnc1-c1ccccc1,inactive: -4%
15,O=P(Nc1nc2ccc(Cl)cc2s1)(c1ccccc1)c1ccccc1,inactive: 8.6%
16,CCCC1OP(N)(=O)OCC1CC (stereo not given),inactive: -1.4%
17,O=C(O)c1ccccc1[As](=O)(O)O,inactive: -5.3%
18,CC(=O)Nc1ccc([As](=O)(O)O)cc1,inactive: -10.5%
19,CN(C(=O)Cc1ccc(Cl)c(Cl)c1)[C@H]1CCCC[C@@H]1N1CCCC1,inactive: 6.3%
20,Cc1ccc(NP(=O)(Oc2ccccc2F)Oc2ccccc2F)nc1,inactive: -1.6%
21,CCOP(=O)(Nc1ccccc1)OCC,inactive: -2.6%
22,Cc1cc(SC(NC(=O)c2ccc(F)cc2)C(Cl)(Cl)Cl)ncn1 (stereo not given),inactive: -6.4%

row,SMILES,inhibition
1,CCC(=O)N1C2C3N(C(=O)CC)C1C1N(C(=O)CC)C(C(N1C(=O)CC)N3C(=O)CC)N2C(=O)CC,inactive: -8.7%
2,O=C(OC1CN2CCC1CC2)c1ccccc1 (stereo not given),inactive: 2.2%
3,Cc1ccc(OP(=O)(Nc2ccccn2)Oc2ccc(C)cc2)cc1,inactive: -6.5%
4,CC(=O)NC(SC(=S)N(CC(C)C)CC(C)C)C(Cl)(Cl)Cl (stereo not given),inactive: 23.8%
5,COC(=O)c1cc2c(s1)N=C(c1ccccc1)N(C)P2(=O)N1CCOCC1 (stereo not given),inactive: -13.6%
6,CN(C)C(=O)Oc1noc2ccccc12,inactive: -1.9%
7,O=c1c2cc([N+](=O)[O-])ccc2[nH]c2c([N+](=O)[O-])cc([N+](=O)[O-])cc12,active: 45.2%
8,Cc1ccccc1OP(=O)(Nc1ccccn1)Oc1ccccc1C,inactive: 5.3%
9,CC(NC(=O)COC(=O)C(O)(c1ccccc1)c1ccccc1)c1ccccc1 (stereo not given),inactive: -2.7%
10,Cc1ccc(NP(=O)(Oc2cccc(C)c2)Oc2cccc(C)c2)nc1,inactive: 1.7%
11,c1ccc(-c2nn[nH]n2)c(-c2nn[nH]n2)c1,inactive: 7.4%
12,O=C(NC1CCS(=O)(=O)C1)NP(=S)(Oc1ccccc1)Oc1ccccc1 (stereo not given),inactive: 4%
13,CCNC(=S)/N=C(\N)N[N+](=O)[O-],inactive: 8.3%
14,O=P1(N(CCCl)CCCl)OCCC2CCCCN21 (stereo not given),inactive: -4.3%
15,C[C@@H]1C=CCP(=O)(Oc2ccccc2)O1 (stereo not given in full),inactive: 1.9%
16,C[C@H]1OP(=O)(Oc2ccccc2)C[C@@H]2O[C@@H]21 (stereo not given in full),inactive: -4.8%
17,Cc1ccccc1CN(C)C(=O)COC(=O)C(O)(c1ccccc1)c1ccccc1,inactive: 2.8%
18,COC(=O)C1(C)COP(=O)(NCc2ccccc2)OC1 (stereo not given),inactive: 4.7%
19,N#C/C(=C\c1ccc(N(CCBr)CCBr)cc1)C(N)=O,inactive: -2.2%
20,CC(=O)c1ccc(N2CC2c2ccncc2)cc1 (stereo not given),inactive: -4.6%
21,CC(=O)Nc1ccc(Oc2c([N+](=O)[O-])cc([N+](=O)[O-])cc2[N+](=O)[O-])cc1,inactive: 9.7%
